Values of other authors in PMC11413788, “The heterobivalent (SSTR2/albumin) radioligand [^67Cu]Cu-NODAGA-cLAB4-TATE enables efficient somatostatin receptor radionuclide theranostics” (Theranostics, 2024).

Target: SSTR2
Set-up: method as in PMID 25060207
Conditions: membrane preparations of gene-modified human HTC116-SSTR2+ cells; cited from earlier work

In the case of C[C@@H](O)[C@H](NC(=O)[C@@H]1CSSC[C@H](NC(=O)[C@@H](Cc2ccccc2)NC(=O)CCC(C(=O)O)N2CCN(CC(=O)O)CCN(CC(=O)O)CC2)C(=O)N[C@@H](Cc2ccc(O)cc2)C(=O)N[C@H](Cc2c[nH]c3ccccc23)C(=O)N[C@@H](CCCCN)C(=O)N[C@@H]([C@@H](C)O)C(=O)N1)C(=O)O (stereo partly shown) [[^64Cu]Cu‑NODAGA-TATE, metal not drawn], the Kd is listed as 500 pM.
